# Experimental data taken from patent US8980838B2, “Cyclized peptidomimetic small molecule inhibitors of the WDR5 and MLL1 interaction” (The Regents of the University of Michigan, priority 2011, dated 2015).
# Biological target: WDR5 (Homo sapiens, UniProt P61964)
# Assay: fluorescence-polarization based competitive binding assay
# Conditions: read-out: IC50, binding affinity to WDR5; FP competitive binding; WDR5Δ23 4 nM, tracer 0.6 nM, five hours incubation; Table 3 series; tested form: trifluoroacetate
structure (smiles),measurement,value
CC[C@@H]1NC(=O)[C@H](CCCNC(=N)N)NC(=O)[C@@](C)(NC(=O)C(C)C)CCCCCNC1=O,IC50,< 1 µM
